The values below come from patent US20150344404A1, “PDK4 INHIBITOR AND USE THEREOF” (THE KITASATO INSTITUE, priority 2012, published 2015).

By UniProt entry, the sequences of proteins in these tests, tags left out.
UniProt Q16654, whole entry: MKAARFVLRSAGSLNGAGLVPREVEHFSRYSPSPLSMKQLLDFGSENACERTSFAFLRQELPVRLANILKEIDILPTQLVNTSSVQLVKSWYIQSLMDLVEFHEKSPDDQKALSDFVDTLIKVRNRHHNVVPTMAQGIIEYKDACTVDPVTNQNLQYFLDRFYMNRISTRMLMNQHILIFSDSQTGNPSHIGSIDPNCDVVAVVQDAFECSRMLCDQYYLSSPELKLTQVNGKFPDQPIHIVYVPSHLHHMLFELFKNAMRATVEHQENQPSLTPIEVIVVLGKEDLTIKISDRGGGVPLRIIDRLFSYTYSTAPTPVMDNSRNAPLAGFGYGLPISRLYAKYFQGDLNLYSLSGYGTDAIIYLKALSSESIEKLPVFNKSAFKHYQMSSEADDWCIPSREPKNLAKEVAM

Usually IC50 stands for the concentration that inhibits the measured activity by half.

This assay has as its target PDK4 (Homo sapiens, UniProt Q16654). The assay is described as follows: PDK4 enzyme inhibitory activity by off-chip mobility shift assay. To be noted: read-out: IC50, PDK inhibitory activity of representative compounds; Table 34; recombinant human PDK4, room temperature, 5 hours.
For the compound `COC(=O)c1cc2cc3c(c(O)c2c(=O)o1)OC1(CC3)Cc2c(O)c3c(c(O)c2O1)C(=O)C(OC)=CC3=O` (stereo not drawn), the half-maximal inhibitory concentration (IC50) was found to be 9 µM.
As for `COC1=C(OC)C(=O)c2ccccc2C1=O`, the figure is 9 µM.
Take `O=C(O)c1ccc2c(O)ccc(O)c2c1`: the IC50 was 18 µM.
